Measured affinities in a library of Ab-14 heavy chain variants

All variants were tested on one target, the spike HR2 peptide PDVDLGDISGINAS (SARS-CoV-2).

The variants keep the light chain, the linker and the frameworks of Ab-14 (scFv order VH, three GGGGS repeats, VL).
VH: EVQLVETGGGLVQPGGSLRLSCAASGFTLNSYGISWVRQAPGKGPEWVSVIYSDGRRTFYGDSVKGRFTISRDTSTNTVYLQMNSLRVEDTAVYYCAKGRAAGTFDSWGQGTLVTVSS
VL: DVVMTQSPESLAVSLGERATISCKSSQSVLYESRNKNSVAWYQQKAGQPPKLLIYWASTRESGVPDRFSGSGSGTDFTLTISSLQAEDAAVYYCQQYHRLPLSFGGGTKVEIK

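Designed CDR sequences, proposed from the first random library and measured here. Their group label is 14H_GP_HC (GP: Gaussian process model; HC: hill climbing; a sequence that several methods proposed may carry one label only). The scFvs were displayed on barcoded MATa yeast, the peptide on MATalpha yeast. Mating (16 h, 30 °C) was followed by selection of diploids and sequencing of their barcodes. A regression on co-assayed BCL2-family reference pairs converts the normalised counts of each replicate to an apparent Kd. Mating was done six times.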

The parent's heavy chain CDRs are GFTLNSYGIS, VIYSDGRRTFYGDSVK, GRAAGTFDS; each variant's own CDRs replace them letter for letter.
The read-out is the apparent dissociation constant on a log10 scale (nM): the lower, the stronger.
Replicates are averaged; those with no signal do not enter the mean.
Where no diploid with the target was found in that replicate, the entry reads "nd": below detection, most likely a poor binder, though not proof of it.
In the paper, a design with two or fewer of six values counts as a poor binder.
A sequence measured in both rounds can read differently, since the two assays cover different ranges.
Empty control strains, which show no peptide, gave a signal in 1% of pairings with all heavy chain designs; the median was 2.08 and 95% of these signals were weaker than 0.84. No background was subtracted. For each scFv, signals with the empty controls are counted beside the result, with their mean in brackets.

CDR-H1,CDR-H2,CDR-H3,log10 Kd (nM) by replicate,"mean, log10 nM",control signals
GFTLDSYGIS,VIYSDGRRTFYGDSVK,GREAGTFDV,0.42 0.20 0.04 -0.19 -0.08 0.17,0.09,0 of 18
GFTLNEYGIS,VIYSDGRRTFYGDDVK,GRQAGTFIS,nd nd nd nd nd nd,nd,0 of 18
GFTLNEYGIS,VIYADGRRTFYGDSVK,GQAAGTFIS,nd 2.59 3.50 2.48 3.21 nd,2.95,1 of 18 (1.74)
GFDLNSYGIS,VIYSDGRRTFYGDDVK,GRAAGHFIS,nd nd nd nd nd nd,nd,0 of 18
GFTLNSYGIS,VIYSDGRRTFYTDSVK,GSEAGTFDS,0.82 0.28 -0.03 0.28 -0.11 0.29,0.25,1 of 18 (2.26)
GFNLNSYGIS,VIYSDGRRTFYDDSVK,GRLAGTFDS,nd nd 1.07 nd 0.36 nd,0.71,0 of 18
GFTLKSYGIS,VIYSDGKRTFYSDSVK,GRAGGTFDS,2.68 2.21 nd nd 2.01 nd,2.30,0 of 18
GFWLNDYGIS,VIYADGRRTFYGDSVK,GQAAGTFDS,0.74 0.43 0.26 0.73 0.67 0.96,0.63,0 of 18
GFLLNDYGIS,VIYSDGRRTFYDDSVK,GRAAGTFDS,nd 1.39 nd nd nd nd,1.39,0 of 18
GFTLNDYGIS,VIYSDGRRTFYGDSVK,GRCAGTFMS,nd nd nd nd nd nd,nd,0 of 18
GFTLNDYGIS,VIYSDGRRTQYSDSVK,GRTAGTFDS,1.06 0.67 0.14 0.57 0.83 0.62,0.65,0 of 18
GFTLENYGIS,VIYSDGRRTFYGDSVK,GRAAGTFTS,nd 1.54 1.90 2.06 nd 1.74,1.81,0 of 18
GFTLESYGIS,VIYSDGRRTFYMDSVK,GQGAGTFDS,nd nd nd nd nd nd,nd,0 of 18
GFTLESYGIS,VIYSDGRRTFYDDSVK,GQEAGTFDS,0.61 0.85 0.89 0.38 0.62 0.29,0.61,0 of 18
NFDLNSYGIS,VIYSDGRRTFYGDSVK,GRQAGTFDS,1.86 1.60 2.63 1.97 2.14 2.27,2.08,1 of 18 (3.92)
GFTLNEYGIS,VIYSDGRRTFYQDSVK,GRFAGTFDV,1.79 0.95 0.43 0.48 0.10 0.00,0.62,0 of 18
GFTLESYGIS,VIYADGRRTFYGDHVK,GRAAGTFNS,nd nd 2.09 nd nd 2.51,2.30,0 of 18
GFHLNDYGIS,VIYSDGRRTFYIDSVK,GRMAGTFDS,1.55 2.00 2.05 1.53 1.62 2.00,1.79,0 of 18
GFQLNDYGIS,VIYSDGRRTFYGDAVK,GRAAGTFDI,nd 1.85 2.18 0.59 1.26 1.47,1.47,0 of 18
GFTLNSYGIS,VIYSDGRRTFYSDSVK,GLLAGTFDS,2.40 1.43 0.54 0.37 0.53 0.68,0.99,2 of 18 (2.19)
GFSLNEYGIS,VIYSDGRRTFYHDSVK,GRAAVTFDQ,nd nd nd nd nd nd,nd,0 of 18
GFELNNYGIS,VIYADGRRTFYGDSVK,GRAAGTFDS,-0.42 -0.33 -0.36 -0.43 -0.34 -0.24,-0.35,0 of 18
GFTLNEYGIS,VIYSDGRRTFYADSVK,GRFAGTFDN,nd nd nd nd nd nd,nd,0 of 18
GFTLDSYGIS,VIYSDGRRTFYGDSVK,GRAAGTFIQ,nd nd nd nd nd nd,nd,0 of 18
GFTLESYGIS,VIYADGRRTFYGDEVK,GRAAGTFKS,nd nd nd nd nd nd,nd,1 of 18 (2.22)
GFQLNDYGIS,VIYSDGRRTFYGDSVK,GTAAGTFDS,nd 0.66 -0.16 0.35 -0.10 1.43,0.44,0 of 18
GFDLNSYGIS,VIYSDGRRTFYLDSVK,GQEAGTFDS,nd -0.02 nd 0.11 0.90 nd,0.33,0 of 18
GFQLNEYGIS,VIYSDGRRTFYDDSVK,GRTAGTFDS,0.11 -0.37 -0.17 -0.41 -0.43 -0.29,-0.26,0 of 18
GFTLNEYGIS,VIYSDGRRTFYGDSVK,GRAAGTFDG,nd nd nd nd nd nd,nd,0 of 18
DFTLNEYGIS,VIYSDGRRTFYGDSVK,GRAAVTFDT,nd nd nd nd nd nd,nd,0 of 18
GFTLNSYGIS,VIYSDGRRTFYIDSVK,GLLAGTFDS,nd nd nd nd nd nd,nd,0 of 18
GFTLNEYGIS,VIYSDGRRTFYGDSVK,GRYAVTFDI,nd nd nd nd nd nd,nd,0 of 18

For reference, 5 entries of the list once more:

CDR-H1,CDR-H2,CDR-H3,log10 Kd (nM) by replicate,"mean, log10 nM",control signals
GFTLNEYGIS,VIYSDGRRTFYQDSVK,GRFAGTFDV,1.79 0.95 0.43 0.48 0.10 0.00,0.62,0 of 18
GFTLNEYGIS,VIYSDGRRTFYGDDVK,GRQAGTFIS,nd nd nd nd nd nd,nd,0 of 18
GFTLNSYGIS,VIYSDGRRTFYTDSVK,GSEAGTFDS,0.82 0.28 -0.03 0.28 -0.11 0.29,0.25,1 of 18 (2.26)
GFTLNEYGIS,VIYSDGRRTFYADSVK,GRFAGTFDN,nd nd nd nd nd nd,nd,0 of 18
GFTLESYGIS,VIYSDGRRTFYDDSVK,GQEAGTFDS,0.61 0.85 0.89 0.38 0.62 0.29,0.61,0 of 18

The measurements come from Li et al. 2023 (doi:10.1038/s41467-023-39022-2) through the FLAb antibody collection.